The text below walks through data of patent US8642657B2 (Gruenenthal GmbH, priority 2003, dated 2014).

Amino acid sequences for entries named in this document (tags omitted).
UniProt O35433, whole entry: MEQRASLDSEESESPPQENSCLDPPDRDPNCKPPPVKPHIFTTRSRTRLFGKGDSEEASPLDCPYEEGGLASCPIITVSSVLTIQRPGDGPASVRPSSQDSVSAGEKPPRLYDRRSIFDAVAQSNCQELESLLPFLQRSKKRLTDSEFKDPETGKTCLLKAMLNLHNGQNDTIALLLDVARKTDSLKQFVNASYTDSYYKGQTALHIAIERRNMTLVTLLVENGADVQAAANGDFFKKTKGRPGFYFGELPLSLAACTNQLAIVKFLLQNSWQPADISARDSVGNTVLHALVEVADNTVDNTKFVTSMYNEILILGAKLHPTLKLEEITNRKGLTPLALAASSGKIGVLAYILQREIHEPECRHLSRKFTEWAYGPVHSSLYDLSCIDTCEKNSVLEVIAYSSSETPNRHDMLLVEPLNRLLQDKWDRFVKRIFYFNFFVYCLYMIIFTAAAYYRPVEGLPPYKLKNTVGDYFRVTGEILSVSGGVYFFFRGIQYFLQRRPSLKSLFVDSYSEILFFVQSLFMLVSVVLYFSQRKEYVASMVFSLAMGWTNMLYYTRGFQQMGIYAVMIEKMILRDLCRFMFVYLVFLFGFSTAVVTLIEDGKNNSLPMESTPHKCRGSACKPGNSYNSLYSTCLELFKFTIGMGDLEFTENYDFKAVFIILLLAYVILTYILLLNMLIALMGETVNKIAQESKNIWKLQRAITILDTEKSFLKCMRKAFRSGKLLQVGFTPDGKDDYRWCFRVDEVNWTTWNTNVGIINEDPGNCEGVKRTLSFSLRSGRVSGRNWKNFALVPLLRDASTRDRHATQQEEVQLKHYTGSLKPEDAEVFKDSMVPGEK

Test [1] deals with T1, rat VR1 (Rattus norvegicus, UniProt O35433).
T1 construct: expressed in transfected cells
Description: [3H]resiniferatoxin (RTX) competition binding assay, VR1-transfected CHO cells. As for the experimental part:
The pUHG102 VR1 plasmid was transfected into CHO cells containing the pTet Off regulatory plasmid (Clontech). In these cells, expression of the VR1 is repressed in the presence of tetracycline but is induced upon removal of the antibiotic. Stable clones were isolated in culture medium containing puromycin (10 μg/mL) and maintained in HAM F12 medium supplemented with tetracycline (1 μg/mL), 5 μg/ml geniticin, 25 mM HEPES, 10% FBS. Cells utilized for assays were grown in culture medium without antibiotic for 48 h before use. Cells were seeded in T75 cell culture flasks in media without antibiotics and grown to approximately 90% confluence. The flasks were then washed with PBS and harvested in 0.25% trypsin, 1 mM EDTA. The cells were pelleted by gentle centrifugation and stored at −20° C. until assay.
Competition Binding Assay
Binding studies with [^3H]resiniferatoxin (RTX) were carried out as described previously with minor modifications (Szallasi et al., 1992). Binding assay mixtures were set up on ice and contained 50-100 pM [^3H]RTX, various concentrations of competing ligands, 0.25 mg/mL BSA (Cohn fraction V), and about 5×10^5 VR1-transfected cells. The final volume was adjusted to 350 μL with DPBS with Ca^2+ and Mg^2+ and 0.25 mg/mL bovine serum albumin. Non-specific binding was determined in the presence of 100 nM nonradioactive RTX. The binding reaction was initiated by transferring the assay mixtures to a 37° C. water bath and was terminated after a 60 min incubation period by cooling the tubes on ice. To reduce non-specific binding, 200 μg/ml α-glycoprotein was added. Membrane-bound RTX was then separated from the free by pelleting the membranes in a Beckman 12 benchtop centrifuge (15 min, maximal velocity), the tips of the tubes containing the pellets were cut off, and the radioactivity was determined by scintillation counting. Equilibrium binding parameters (Ki and cooperativity) were determined by fitting the Hill equation to the measured values with the aid of the program MicroCal Origin 6.0.
Initial stocks were dissolved in DMSO. […]

Test [2] concerns the target T1, rat VR1. Nature of the test: 45Ca2+-uptake assay in CHO/VR1 cells, antagonism of capsaicin-stimulated uptake. The class given is cell-based. The note with it: 45Ca2+ uptake stimulated by 50 nM capsaicin. As for the experimental part:
Initial stocks were dissolved in DMSO. For the binding assays, compounds were diluted in with DPBS with Ca^2+ and Mg^2+ and 0.25 mg/mL bovine serum albumin. For the calcium uptake assays, compounds were diluted in DMEM with 0.25 mg/mL bovine serum albumin.
Molecules were characterized to determine whether they were full agonists, partial agonists, or antagonists. For studies of ^45Ca^2+ uptake by CHO/VR1 cells (Tet-off cells), the cells were plated in 24-well plates to yield a cell density 20-40% of that required to produce confluence. The next day the medium was changed to remove the tetracycline and induce VR1 expression. Experiments were performed approximately 36-40 hours after induction. For ^45Ca^2+ uptake assay, cells were incubated for 5 min at 37° C. in a total volume of 400 μL of serum free DMEM (containing 1.8 mM CaCl2) in the presence of 0.25 mg/mL BSA (Sigma), 1 μCi/mL ^45Ca^2+ (5-30 Ci/g from ICN, CA), and increasing concentrations of the compound to be tested. Immediately after the incubation, extracellular ^45Ca^2+ was removed by washing the cells three times with cold DPBS (containing 1.8 mM CaCl2). Then 400 μl RIPA buffer (50 mM Tris pH 7.4; 150 mM NaCl; 1% Triton X-100; 0.1% SDS; 1% sodium deoxycholate) was added to each well in order to lyse the cells. Plates were shaken slowly for 20 min; then 306 μL of cell lysate was transferred from each well into a scintillation vial and radioactivity was determined by scintillation counting. For each data point in each experiment, four wells were assayed. Data from these experiments were analyzed by computer fit to the Hill equation. At least 3 separate experiments were carried out for each compound. In order to determine antagonist activity, studies were performed in exactly the same fashion with the exception that 50 nM capsaicin was added to the assay mixture to stimulate ^45Ca^2+ uptake.

Where [3] appears, read: competition with [3H]RTX, rat VR1 in CHO cells, read-out: Ki (nM) Binding Affinity.

What is called Ki is a dissociation constant, usually derived from enzyme kinetics or from competition with a known ligand. `CC(C(=O)NCCCc1ccc(Cl)cc1)c1ccc(NS(C)(=O)=O)c(F)c1` (stereo not drawn) [4-19, N-[3-(4-Chlorophenyl)propyl]-2-[3-fluoro-4-(methylsulfonylamino)phenyl]propionamide]: the Ki was 466 nM on rat VR1 [1] (setting [3]) and 135 nM on rat VR1 [2].

For `CC(C(=O)NCC=Cc1ccc(Cl)cc1)c1ccc(NS(C)(=O)=O)c(F)c1` (stereo not drawn) [4-20, N-[3-(4-Chlorophenyl)-2-propenyl]-2-[3-fluoro-4-(methylsulfonylamino)phenyl]propionamide], the Ki came out at 897 nM at rat VR1 [1] and 384 nM on rat VR1 [2].

Consider `CC(C(=O)NCC=C(c1ccccc1)c1ccccc1)c1ccc(NS(C)(=O)=O)c(F)c1` (stereo not drawn) [4-25, N-(3,3-Diphenyl-2-propenyl)-2-[3-fluoro-4-(methylsulfonylamino)phenyl]propionamide], for which the values for the Ki on rat VR1 [1] (setting [3]) and on rat VR1 [2] were 21.5 nM and 14.2 nM, respectively.
